Screening results (PubChem)
An excerpt weighted towards active compounds, which were near 3.7% of everything screened.
ClpP mod: qHTS Assay for Activators of ClpP. purified B. subtilis ClpP, FRET peptide cleavage, 20 min. Potency, µM (titrated, usually from 57.5 µM), inactives show at the highest dose activity change, negative = active. 1.9% of 340,000 active. AID 651965, 2013; active = well fitted falling curve with a large enough effect; inconclusive = small, poorly fitted or top-dose-only effect; inactive = no such curve, though single readings can be large or run the other way; note: potency is the fitted concentration of half-maximal effect; the source files actives as falling curves though it sought activators and does not explain the sign; nearly all actives have a fitted effect of over 65% in size
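ClpP 10 microg/mL final, pH 8 Tris/KCl buffer with BSA, glycerol, Tween-20; compound pinned in; FRET-FV substrate; RT 20 min; Ex320/Em430; ΔFRET vs ADEP 5.8 microM, DMSO, no enzyme.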
TCR act: T cell receptor activation; 330,000 tested, under 10 active; primary human leukocytes, anti-CD3, IL-2 HTRF, 48 h; Potency, µM (series often up to 9.22 µM), for the others: at the top dose activation of IL-2 secretion, actives largely listed as activators; AID 504894; note: % of control where 0% means no effect
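IL-2 produced over 48 hr by a-CD3 bead-stimulated primary human leukocytes exposed to compounds was detected with a homogeneous time-resolved FRET immunoassay, 665nm acceptor signal after 320nm excitation.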
Nrf2 block: blocks Nrf2 signaling. Potency, µM (top dose mostly 46 µM), without a hit: at the highest dose activity change, negative = inhibition, hits mostly inhibitors. A549 ARE-Fluc reporter, luciferase luminescence, 18-24 h. 2.1% of 360,000 active; note: potency is the fitted concentration of half-maximal effect; % is set by controls: 0 for no effect and ±100 for the full control effect; nearly all actives have a fitted effect of over 60% in size
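A549 ARE_Fluc cells (5000/well, 5% FBS OPTI-MEM) pre-incubated 2 h, then treated with compounds 18-24 h at 37C/5% CO2 in concentration-response. CellTiter-Fluor viability read first; BugLite luciferase luminescence after 15 min at room temperature gives Nrf2 activity.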
Nrf2 ARE act: Nrf2 pathway activation; Potency, µM (series often up to 46.1 µM), without a hit: at the highest dose activation, usual class: activators; 0.31% of 410,000 active; AREc32 ARE-luciferase reporter (MCF7-derived line), luminescence, 24 h; note: potency is the fitted concentration of half-maximal effect; % of control where 0% means no effect; nearly all actives have a fitted effect of over 65% in size
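Nrf2 activation is followed as ARE-luciferase induction in the AREc32 line after one day of compound treatment; luminescence is read with Steady-Glo.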
miR-21 FLuc: raises the signal of a miR-21 reporter | AID 2288 | 340,000 tested, under 10 active | Potency, µM (series often up to 38.3 µM), without a hit: at the highest dose reporter change, positive = more light | HeLa miR-21 FLuc reporter, luciferase, 48 h; active = well fitted rising curve with a large enough effect; inconclusive = small, poorly fitted or top-dose-only effect; inactive = no such curve, though single readings can be large or run the other way;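 further: % of control where 0% means no effect; miR-21 action dims this reporter so a rising signal means less miR-21 action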
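HeLa miR-21-FLuc reporter line, endogenous miR-21; 2000 cells/well in DMEM/10% FBS; compound titration up to ~40uM final, 48 h, 37 degree Celsius; luciferase detection reagent, 15 min lysis, CCD luminescence.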
A549 tox-1: kills or reduces viability of A549 cells in Nrf2 counter-screen. A549 ARE-Fluc cells, CellTiter-Fluor viability, 18-24 h. Potency, µM (doses to about 46 µM), inactives show at the top dose activity change, negative = cytotoxicity, most hits filed as inhibitors. 0.16% of 390,000 active. AID 504648; note: potency is the fitted concentration of half-maximal effect; % is set by controls: 0 for no effect and ±100 for the full control effect
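A549 ARE-Fluc cells in 5% FBS OPTI-MEM, 5000 cells/well, rested 2 h then exposed to compounds in concentration-response for 18-24 h at 37 °C. Viability by CellTiter-Fluor fluorescence (Ex 405/Em 525) after 30 min; luciferase luminescence (BugLite, 15 min, RT) read afterwards.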
FLuc counter 3: blocks purified firefly luciferase in Nrf2 counterscreen; shares compounds with Nrf2 block; purified firefly luciferase, luminescence inhibition; Potency, µM (series often up to 57.5 µM), for inactives: at the highest dose activity change, negative = inhibition, most hits filed as inhibitors; 4% of 1,400 active; AID 720522; note: potency is the fitted concentration of half-maximal effect; % is set by controls: 0 for no effect and ±100 for the full control effect; nearly all actives have a fitted effect of over 65% in size
A549 tox-2: toxic to A549 ARE-Fluc cells in Nrf2 counterscreen; shares compounds with Nrf2 block; A549 ARE-Fluc cells, cytotoxicity counterscreen; Potency, µM (titrated, usually from 46.1 µM), inactives show at the top dose activity change, negative = cytotoxicity, most hits filed as inhibitors; 2% of 1,400 active;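 note: potency is the fitted concentration of half-maximal effect; cells exposed to compounds for 18 to 24 hours; % is set by controls: 0 for no effect and ±100 for the full control effect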
Nrf2 ARE inh: confirmation of Nrf2 inhibitors in A549 ARE reporter cells. 74% of 1,400 active. shares compounds with Nrf2 block. A549 ARE-firefly luciferase reporter, luminescence. AID 720524. Potency, µM (titrated, usually from 46.1 µM), inactives show at the top dose activity change, negative = inhibition, most hits filed as inhibitors; note: potency is the fitted concentration of half-maximal effect; % is set by controls: 0 for no effect and ±100 for the full control effect; nearly all actives have a fitted effect of over 65% in size
The depositor's hits bear a star; [ ] = dose if it differs, or a comment. Unless noted, calls come from the whole dose curve; as a rule, active = well fitted curve in the direction sought with a large enough effect; inconclusive = small, poorly fitted or top-dose-only effect, or another doubt; inactive = no such curve, though single readings can be large; an effect the other way counts as inactive or inconclusive.

What do the screens show for `O=C(NCCN1CCC(n2c(=O)[nH]c3ccccc32)CC1)c1ccc(F)cc1F`?
ClpP mod: -2%; Nrf2 ARE act: -1%

How did CC(=O)c1c(C)[nH]c(C(=O)OCC(=O)Nc2ccc(Cl)c(S(=O)(=O)N(C)C)c2)c1C do in these assays?
ClpP mod: 3%; TCR act: -4%; Nrf2 block: 9.2µM*; Nrf2 ARE act: 5%; miR-21 FLuc: inconclusive; A549 tox-1: -21%; FLuc counter 3: -2%; A549 tox-2: -15%; Nrf2 ARE inh: 9.2µM*

What do the screens show for `COc1ccc(Nc2nnc(SC(C(=O)Nc3cc(C)ccc3C)c3ccccc3)s2)cc1` (centres undefined)?
TCR act: 2%; Nrf2 block: 8.2µM*; Nrf2 ARE act: 2%; miR-21 FLuc: -2%; A549 tox-1: -16%; FLuc counter 3: 0%; A549 tox-2: -6%; Nrf2 ARE inh: -25%

What do the screens show for `Nc1nonc1-c1nc2ccccc2n1Cc1ccc(Br)cc1`?
ClpP mod: 5%; Nrf2 block: -19%; Nrf2 ARE act: -1%; miR-21 FLuc: 0%; A549 tox-1: 0%

How did CC(C)n1cnc2c(Nc3ccc(F)c(Cl)c3)nc(NCCO)nc21 do in these assays?
ClpP mod: -2%; TCR act: -1%; Nrf2 block: 18%; Nrf2 ARE act: 11%; miR-21 FLuc: -14%; A549 tox-1: -7%

How did C=CC(=O)Nc1ccc(Nc2nc(NC3CCC(N(C)C)CC3)nc3c2ncn3C(C)C)cc1 (centres undefined) do in these assays?
ClpP mod: 0%; TCR act: -4%; Nrf2 block: 2.6µM*; Nrf2 ARE act: -3%; A549 tox-1: 18µM*; FLuc counter 3: 5%; A549 tox-2: 8.2µM*; Nrf2 ARE inh: 2.6µM*

Results for COc1cc2nc(NCCc3ccccc3)n3nc(-c4cccnc4)nc3c2cc1OC ?
ClpP mod: -4%; Nrf2 block: 13%; Nrf2 ARE act: -1%; miR-21 FLuc: 3%; A549 tox-1: 7%

How did CCCCCc1ccc(OCCOCCn2c[n+](C)c3ccccc32)c(CCCCC)c1 do in these assays?
ClpP mod: 1%; TCR act: -2%; Nrf2 block: 7.3µM*; Nrf2 ARE act: -5%; miR-21 FLuc: inconclusive; A549 tox-1: -25%; FLuc counter 3: -1%; A549 tox-2: inconclusive

Results for CC(=O)c1c(C)[nH]c(C(=O)OCCCCN2C(=O)c3ccccc3C2=O)c1C ?
ClpP mod: -1%; Nrf2 block: 5.8µM*; Nrf2 ARE act: 1%; miR-21 FLuc: 13%; A549 tox-1: -19%; FLuc counter 3: 1%; A549 tox-2: -6%

Results for CC(=O)c1c(C)[nH]c(C(=O)OCc2ccccc2)c1C ?
TCR act: 1%[46.1 µM]; Nrf2 block: inconclusive; Nrf2 ARE act: 16%; miR-21 FLuc: -33%; A549 tox-1: 4%

How did COCCN1CC(C(=O)NCCc2nc(C)c(C)s2)CCC1=O (centres undefined) do in these assays?
ClpP mod: 1%; TCR act: 0%; Nrf2 block: 6%; Nrf2 ARE act: 0%; miR-21 FLuc: -1%; A549 tox-1: 0%

Results for Cc1ccc[n+](Cc2ccc([N+](=O)[O-])cc2)c1 ?
ClpP mod: 0%; TCR act: -19%; Nrf2 block: inconclusive; Nrf2 ARE act: 0%; miR-21 FLuc: 1%; A549 tox-1: 2%

How did O=[N+]([O-])c1ccc(C[n+]2cccc3c4ccccc4ccc32)cc1 do in these assays?
ClpP mod: 4%; TCR act: -15%; Nrf2 block: 3.7µM*; Nrf2 ARE act: -1%; miR-21 FLuc: inconclusive; A549 tox-1: inconclusive; FLuc counter 3: 2%; A549 tox-2: -1%; Nrf2 ARE inh: 3.7µM*

Results for CCN(CC)S(=O)(=O)c1ccc(/C=C/C(=O)Nc2ccc(F)c(F)c2F)cc1 ?
ClpP mod: inconclusive; TCR act: -2%[46.1 µM]; Nrf2 block: inconclusive; Nrf2 ARE act: 6%; miR-21 FLuc: 17%; A549 tox-1: -4%; FLuc counter 3: -10%; A549 tox-2: -5%; Nrf2 ARE inh: inconclusive

What do the screens show for `CCN(CC)S(=O)(=O)c1ccc(/C=C/C(=O)Nc2ccc(Br)cc2F)cc1`?
ClpP mod: -6%; TCR act: 0%; Nrf2 block: 9.2µM*; Nrf2 ARE act: 4%; miR-21 FLuc: 13%; A549 tox-1: -3%; FLuc counter 3: -9%; A549 tox-2: -2%; Nrf2 ARE inh: 4.6µM*

Arranged by molar mass (falling): 3 of the compounds above.
What do the screens show for `CCN(CC)S(=O)(=O)c1ccc(/C=C/C(=O)Nc2ccc(Br)cc2F)cc1`?
ClpP mod: -6%; TCR act: 0%; Nrf2 block: 9.2µM*; Nrf2 ARE act: 4%; miR-21 FLuc: 13%; A549 tox-1: -3%; FLuc counter 3: -9%; A549 tox-2: -2%; Nrf2 ARE inh: 4.6µM*

Results for CCN(CC)S(=O)(=O)c1ccc(/C=C/C(=O)Nc2ccc(F)c(F)c2F)cc1 ?
ClpP mod: inconclusive; TCR act: -2%[46.1 µM]; Nrf2 block: inconclusive; Nrf2 ARE act: 6%; miR-21 FLuc: 17%; A549 tox-1: -4%; FLuc counter 3: -10%; A549 tox-2: -5%; Nrf2 ARE inh: inconclusive

What do the screens show for `Nc1nonc1-c1nc2ccccc2n1Cc1ccc(Br)cc1`?
ClpP mod: 5%; Nrf2 block: -19%; Nrf2 ARE act: -1%; miR-21 FLuc: 0%; A549 tox-1: 0%

Remaining list, next part:
What do the screens show for `CCN(CC)S(=O)(=O)c1ccc(/C=C/C(=O)Nc2ccc(F)cc2F)cc1`?
ClpP mod: 0%; TCR act: -2%[46.1 µM]; Nrf2 block: inconclusive; Nrf2 ARE act: 3%; miR-21 FLuc: -2%; A549 tox-1: -3%

What do the screens show for `Cc1ccccc1NC(=O)c1cccc2nc3ccccc3nc12`?
ClpP mod: -1%; TCR act: 3%; Nrf2 block: 5.2µM*; Nrf2 ARE act: 0%; miR-21 FLuc: -3%; A549 tox-1: -27%; FLuc counter 3: -11%; A549 tox-2: inconclusive; Nrf2 ARE inh: 10µM*

Results for Cc1ccccc1NC(=O)c1ccccc1NC(=O)Cc1cccc2ccccc12 ?
ClpP mod: 28%; TCR act: -7%[46.1 µM]; Nrf2 block: 0%; Nrf2 ARE act: 0%; miR-21 FLuc: 4%; A549 tox-1: 11%

What do the screens show for `CCn1ncc(Br)c1C(=O)Nc1ccc(-c2ccno2)cc1`?
ClpP mod: 1%; TCR act: 7%; Nrf2 block: -2%; Nrf2 ARE act: 0%; miR-21 FLuc: -15%; A549 tox-1: 5%
